Experimental data: patent US8088733B2 (dated 2012)

Chains of the proteins cited; added tags and fusions are not shown.
UniProt Q92847, whole entry: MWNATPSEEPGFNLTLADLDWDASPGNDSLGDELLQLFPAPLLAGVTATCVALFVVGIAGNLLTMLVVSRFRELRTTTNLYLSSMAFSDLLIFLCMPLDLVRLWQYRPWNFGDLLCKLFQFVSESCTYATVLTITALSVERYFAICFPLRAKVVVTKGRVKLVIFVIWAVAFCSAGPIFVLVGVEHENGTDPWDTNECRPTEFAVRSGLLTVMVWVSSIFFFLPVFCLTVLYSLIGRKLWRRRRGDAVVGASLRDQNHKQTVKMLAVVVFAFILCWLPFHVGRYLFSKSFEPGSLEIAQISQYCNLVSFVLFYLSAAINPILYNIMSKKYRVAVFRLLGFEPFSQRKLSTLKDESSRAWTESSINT

Target: human ghrelin receptor (Homo sapiens, UniProt Q92847)
Conditions: reference agonist concentration

EC80: 3.7 nM
Substance: ghrelin
